# In ChEMBL document CHEMBL4842359, “1,3-Diarylpyrazolyl-acylsulfonamides as Potent Anti-tuberculosis Agents Targeting Cell Wall Biosynthesis in Mycobacterium tuberculosis” (J Med Chem, 2021):
# Experiment: physchem
# Details: aqueous phosphate buffer, pH 7.4
smiles,measurement,value
O=C1NC(=O)C(Cc2cn(-c3ccc(Cl)cc3)nc2-c2ccc(Cl)cc2)C(=O)N1,solubility thermodynamic,200 µM
